This is an account of results in PubChem BioAssay AID2806 (Sanford-Burnham Center for Chemical Genomics, 2010).

The structures appear in SMILES notation. The entries are a selection whose mix differs from that of the whole data set. The source made the active and inactive calls.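 How the source made its calls: active means inhibition of at least 40% at 10 µM in the primary screen; inactive means the rest.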

For the test, the system named is intestinal alkaline phosphatase [Mus musculus]. The test can be described thus: mouse intestinal phosphatase enzyme inhibition – biochemical, luminescence, uHTS, primary screen (AID 2806).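 Further: plate controls were DMSO with enzyme for no effect and no enzyme wells for full effect.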 The settings on record: purified mouse IAP, CDP-Star luminescence, 30 min; at 10 µM; stronger effect = higher value.
What is called inhibition is the change of the read-out against control, counted positive when it falls. On to `CCC(=O)N(c1ccccc1)C1(COC)CCN(CCc2cccs2)CC1`, for which the inhibition is inactive: -19.6%.
The figure for `CCC(=O)N(c1ccccc1)C1(COC)CCN(CCn2nnn(CC)c2=O)CC1` is inactive: -9.7%.
